{"sequences": {"note": "By UniProt entry, the sequences of proteins in these tests, tags left out.", "UniProt P29371, whole entry": "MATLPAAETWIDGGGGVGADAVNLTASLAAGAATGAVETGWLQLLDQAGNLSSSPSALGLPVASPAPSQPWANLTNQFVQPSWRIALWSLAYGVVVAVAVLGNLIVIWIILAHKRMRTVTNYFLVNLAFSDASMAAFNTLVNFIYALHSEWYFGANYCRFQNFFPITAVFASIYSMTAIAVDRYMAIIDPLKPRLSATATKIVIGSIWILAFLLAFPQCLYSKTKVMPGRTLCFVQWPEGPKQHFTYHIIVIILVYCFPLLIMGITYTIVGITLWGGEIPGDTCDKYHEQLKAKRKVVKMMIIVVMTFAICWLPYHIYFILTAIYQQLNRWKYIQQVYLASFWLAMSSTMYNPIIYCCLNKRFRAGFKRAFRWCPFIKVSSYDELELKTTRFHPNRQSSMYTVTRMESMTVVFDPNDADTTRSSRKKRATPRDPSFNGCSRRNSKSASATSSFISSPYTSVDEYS"}, "source": "ChEMBL document CHEMBL1275402", "about": "“Virtual screening to identify novel antagonists for the G protein-coupled NK3 receptor” (J Med Chem, 2010)", "target": "Neuromedin-K receptor (Homo sapiens, UniProt P29371)", "experiment": "Antagonist activity against human NK3 receptor expressed in HEK293 cells assessed as inhibition of NKB-induced increase of intracellular calcium level by fluorescent plate-reader analysis", "format": "functional, cell-based"}
{"smiles": "CC[C@H](NC(=O)c1c(O)c(-c2ccccc2)nc2ccccc12)c1ccccc1", "note": "[TALNETANT]", "values": [{"measurement": "IC50", "value": 16.6, "unit": "nM"}]}
